Test results published in patent publication US7112341B1, “Pulmonary administration of dry powder formulations for treating infertility” (Nektar Therapeutics, priority 1999, dated 2006).

Assay: Bioavailability of SC and IT administered FSP in rats
Assay type: in vivo, Male Sprague-Dawley rats
Conditions: rat

Substance	AUC (SC, 0.9 Units/200 μL/rat)	CMax (SC, 0.9 Units/200 μL/rat)	TMax (SC, 0.9 Units/200 μL/rat)	AUC (SC, 9.0 Units/200 μL/rat)	CMax (SC, 9.0 Units/200 μL/rat)	TMax (SC, 9.0 Units/200 μL/rat)	f (bioavailability in % = AUCIT/AUCSC) (IT vs SC, 9.0 Units/200 μL/rat)	AUC (IT, 9.0 Units/200 μL/rat)	CMax (IT, 9.0 Units/200 μL/rat)	TMax (IT, 9.0 Units/200 μL/rat)
human pituitary-derived FSP: Human FSH from pituitary, Sigma, lot #34H0069 product # F 4021 [reference compound]	94.05 mIU/ml.hr	6.6 mIU/ml	8 h	420.37 mIU/ml.hr	13.1 mIU/ml	4 h	–	–	–	–
human urinary-derived FSP: FERTINORM HP 75IU (Urofollitropin) im/sc, Serono Laboratories, reconstituted solution	–	–	–	251.3 mIU/ml.hr	10.25 mIU/ml	9 h	21.4%	53.63 mIU/ml.hr	4.14 mIU/ml	6 h
